Results on 1 substance are retold here after article PMC3931418 (Nature, 2014).

Amino acid sequences for entries named in this document (tags omitted). Residues count along the entry.
UniProt P41143, 36-338 P37S: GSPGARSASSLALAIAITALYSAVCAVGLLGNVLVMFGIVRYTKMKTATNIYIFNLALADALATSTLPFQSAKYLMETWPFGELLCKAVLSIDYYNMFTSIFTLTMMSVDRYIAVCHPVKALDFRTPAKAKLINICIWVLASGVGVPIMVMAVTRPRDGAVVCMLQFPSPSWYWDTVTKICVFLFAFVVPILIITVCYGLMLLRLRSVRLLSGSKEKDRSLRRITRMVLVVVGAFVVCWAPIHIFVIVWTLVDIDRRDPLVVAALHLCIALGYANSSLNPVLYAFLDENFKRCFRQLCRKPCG

This test has as its target BRIL-δOR(ΔN/ΔC) (Sf9) (Homo sapiens, UniProt P41143, P37S). Format: binding.

As for DADLE, the “effect of NaCl on binding affinity” value is “reduced the affinity”.
